Results as given in patent US8865733B2, “Medication and treatment for disease” (Altman Enterprises, LLC, priority 2008, dated 2014).

Test system: MS patients
Assay: Treatment of individual MS patients with the medication (case reports, Patients A, B, C)
Type: in vivo, human
From the text: Patient A was a person, who was diagnosed with MS 14 months previously based on an MRI of their brain and a lumbar puncture. They presented with gait difficulties, muscle spasms in the lower extremities, and short term memory dysfunction.
Patient B was a person, who was diagnosed 9 months previously with MS following an MRI of their brain and a lumbar puncture. Patient B experienced neuralgia pain in their left upper extremities at an 8-9 on a 10 point scale, and numbness in their left torso. […] Patient B was given a twice daily tablet of the medication comprising 2 mg naltrexone hydrochloride, 0.5 mg clonazepam, 100 μg vitamin B12 as cyanocobalamin, 20 mg vitamin B6, and 10 mg coenzyme Q. After six weeks, the pain in Patient B's left extremity had reduced to 1-3 on a 10 point scale, and their numbness had been eliminated.
Patient C was a person, who had had MS for seven years. Diagnosis was confirmed by an MRI of their brain, lumbar puncture, and visual evolved response. Patient C experienced numbness on their right side, severe fatigue, generalized muscle spasms, and neuralgia pain of 5-6 on a 10 point scale. […]

B1: Avonex: a standard MS medication, given by injection (protein, UniProt P01574 22-187, looked up)
Interferon beta: MSYNLLGFLQRSSNFQCQKLLWQLNGRLEYCLKDRMNFDIPEEIKQLQQFQKEDAALTIYEMLQNIFAIFRQDSSSTGWNETIVENLLANVYHQINHLKTVLEEKLEKEDFTRGKLMSSLHLKRYYGRILHYLKAKEYSHCAWTIVRVEILRNFYFINRLTGYLRN
Patient A, injections of Avonex before the medication
  improvement under earlier treatment: no improvement
Patient C, person with MS, treated with Avonex before the medication
  improvement under earlier treatment: minimal improvement
